Active and inactive are the calls of the source. The rule behind the calls is not given here.
Tests used:
Cavia porcellus [1] = species: Cavia porcellus; assay: Displacement of [3H]Cl-DPDPE from DOR in guinea pig vas deferens
Cavia porcellus [2] = species: Cavia porcellus; assay: Partial agonist activity at KOR in guinea pig ileum assessed as inhibition of electrically-stimulated twitch in presence of norBNI
Rhesus monkey = assay: Reduction in morphine dependence in nonwithdrawn rhesus monkey model assessed as attenuation of naloxone-induced naloxone-precipitated withdrawal effect at 2 mg/kg; details: Macaca mulatta
Cavia porcellus [3] = species: Cavia porcellus; assay: Irreversible partial agonist activity at KOR in guinea pig ileum assessed as inhibition of electrically-stimulated twitch

SMILES | Ke (Cavia porcellus [1]) | further results
O=C(/C=C/c1ccccc1)O[C@@]12CCC(=O)[C@@H]3Oc4c(O)ccc5c4[C@@]31CCN(CC1CC1)[C@@H]2C5 | 0.25 nM | –
CO[C@]12CC[C@@]3(C[C@@H]1NC(=O)/C=C/c1ccccc1)[C@H]1Cc4ccc(O)c5c4[C@@]3(CCN1CC1CC1)[C@H]2O5 | 0.94 nM | –
COC(=O)/C=C/C(=O)N[C@H]1C[C@@]23CC[C@]1(OC)[C@@H]1Oc4c(O)ccc5c4[C@@]12CCN(CC1CC1)[C@@H]3C5 | 6.2 nM | –
COC(=O)/C=C/C(=O)O[C@@]12CCC(=O)[C@@H]3Oc4c(O)ccc5c4[C@@]31CCN(CC1CC1)[C@@H]2C5 | 6.84 nM | inhibition (Cavia porcellus [2]): inactive
COC(=O)/C=C/C(=O)N[C@@]12CCC(=O)[C@@H]3Oc4c(O)ccc5c4[C@@]31CCN(CC1CC1)[C@@H]2C5 | – | Activity (Rhesus monkey): inactive
CO[C@]12CC[C@@]3(C[C@@H]1CNC(=O)/C=C/c1ccccc1)[C@H]1Cc4ccc(O)c5c4[C@@]3(CCN1CC1CC1)[C@H]2O5 | 0.044 nM | –
COC(=O)/C=C/C(=O)NC[C@H]1C[C@@]23CC[C@]1(OC)[C@@H]1Oc4c(O)ccc5c4[C@@]12CCN(CC1CC1)[C@@H]3C5 | 1.25 nM | inhibition (Cavia porcellus [3]): Active; inhibition (Cavia porcellus [2]): Active
COC(=O)CCC(=O)N[C@@]12CCC(=O)[C@@H]3Oc4c(O)ccc5c4[C@@]31CCN(CC1CC1)[C@@H]2C5 | 3.89 nM | –

Reference: ChEMBL document CHEMBL2176977 (J Med Chem, 2012)
